In ChEMBL document CHEMBL6182912, “Development of Novel Phthalazinone-Triazole Hybrids as Potential Antidiabetic Agents Targeting GLUT4 Translocation in Skeletal Muscle” (J Med Chem, 2025):

Molecular target: Aldo-keto reductase family 1 member B1 (Homo sapiens, UniProt P15121)
Assay: biochemical

IC50: 1 nM
Compound: O=C(O)Cc1nn(Cc2nc3cc(C(F)(F)F)ccc3s2)c(=O)c2ccccc12 [ZOPOLRESTAT]
